The values that follow come from paper PMC3866251, “The Sodium/Proline Transporter PutP of Helicobacter pylori” (PLoS ONE, 2013).

For the data set, the system named is O=C(O)[C@@H]1CCCN1. Briefly: cells, lysate or membranes. Conditions: 50 mM NaCl (Na+ coupling ion); labelled compound.

As usually defined, the Km is the concentration of substrate that gives half-maximal velocity. In the case of HpPutP (Helicobacter pylori P12), the Km was found to be 1.8 ± 0.2 µM.
